This experiment concerns the target T1, Topoisomerase II (Homo sapiens, UniProt P11388).
T1 construct: purchased
The experiment is described as follows: In vitro Topoisomerase II enzyme inhibition assay (plasmid-based kit). It is filed as biochemical. The note with it: read-out: Topoisomerase II IC50 (mean ± SD). As for the experimental part: In vitro enzyme inhibitory assay of compounds 3a and 5d was performed against Topoisomerase-II enzyme using Topoisomerase II Assay Kit (plasmid-based)[34] and HSP90 enzyme using HSP90 (C-Terminal) Inhibitor Screening Assay Kit[35]. The procedure of the used kits was done according to the manufacturer’s instructions.
Topoisomerase II inhibitors can cause DNA damage and halt the cell cycle.

Chains of the proteins cited; added tags and fusions are not shown. Lines headed by an entry give the natural chain unless they say otherwise; changes in a name come on top.
UniProt P11388: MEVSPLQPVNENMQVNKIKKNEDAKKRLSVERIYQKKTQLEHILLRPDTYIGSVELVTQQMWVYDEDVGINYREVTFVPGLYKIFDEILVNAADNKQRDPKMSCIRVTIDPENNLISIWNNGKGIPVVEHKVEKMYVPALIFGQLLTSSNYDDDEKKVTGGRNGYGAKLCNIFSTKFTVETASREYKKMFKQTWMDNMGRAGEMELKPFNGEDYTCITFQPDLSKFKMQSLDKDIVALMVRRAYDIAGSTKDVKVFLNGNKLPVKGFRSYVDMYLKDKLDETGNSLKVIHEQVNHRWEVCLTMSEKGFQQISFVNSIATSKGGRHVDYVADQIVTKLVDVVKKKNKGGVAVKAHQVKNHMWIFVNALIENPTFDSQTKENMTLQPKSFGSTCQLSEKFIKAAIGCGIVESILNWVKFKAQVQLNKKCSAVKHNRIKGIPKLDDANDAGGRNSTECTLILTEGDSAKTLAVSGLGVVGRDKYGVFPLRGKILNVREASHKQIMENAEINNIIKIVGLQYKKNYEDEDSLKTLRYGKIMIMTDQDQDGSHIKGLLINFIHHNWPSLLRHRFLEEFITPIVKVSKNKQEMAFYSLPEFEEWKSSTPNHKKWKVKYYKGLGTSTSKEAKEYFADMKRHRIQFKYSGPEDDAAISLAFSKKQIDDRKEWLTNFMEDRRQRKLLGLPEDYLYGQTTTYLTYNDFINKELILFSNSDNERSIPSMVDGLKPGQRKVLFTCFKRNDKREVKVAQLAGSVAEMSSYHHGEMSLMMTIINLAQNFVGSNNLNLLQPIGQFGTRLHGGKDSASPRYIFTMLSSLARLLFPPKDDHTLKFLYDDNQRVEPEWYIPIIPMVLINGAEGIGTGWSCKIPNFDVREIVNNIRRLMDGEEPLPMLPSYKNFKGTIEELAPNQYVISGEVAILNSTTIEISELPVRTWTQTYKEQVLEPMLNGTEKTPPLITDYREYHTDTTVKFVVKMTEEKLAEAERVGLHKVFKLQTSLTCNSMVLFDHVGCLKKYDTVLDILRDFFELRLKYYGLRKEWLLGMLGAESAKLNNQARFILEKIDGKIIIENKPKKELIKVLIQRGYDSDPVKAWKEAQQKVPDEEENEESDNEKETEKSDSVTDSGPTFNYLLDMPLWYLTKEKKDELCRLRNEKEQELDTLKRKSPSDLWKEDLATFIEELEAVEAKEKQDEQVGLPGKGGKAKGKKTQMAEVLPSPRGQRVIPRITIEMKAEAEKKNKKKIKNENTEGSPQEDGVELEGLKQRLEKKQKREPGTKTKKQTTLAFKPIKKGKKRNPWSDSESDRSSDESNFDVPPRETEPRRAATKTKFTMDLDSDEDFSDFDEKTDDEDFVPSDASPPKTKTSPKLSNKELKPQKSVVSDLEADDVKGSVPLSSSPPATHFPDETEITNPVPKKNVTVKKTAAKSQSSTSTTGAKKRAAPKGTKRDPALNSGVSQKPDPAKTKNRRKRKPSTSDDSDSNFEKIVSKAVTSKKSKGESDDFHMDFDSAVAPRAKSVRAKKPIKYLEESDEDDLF

Turning to `COc1cccc2c1C(=O)c1c(O)c3c(c(O)c1C2=O)C[C@@](O)(C(=O)CO)C[C@@H]3O[C@H]1C[C@H](N)[C@H](O)[C@H](C)O1` [Doxorubicin, reference compound], the IC50 was determined as 3.45 ± 0.21 µM.
